Values quoted from earlier work, collected in US6605644B2, “Analgesic regimen” (Ortho-McNeil Pharmaceutical, Inc., priority 1999, dated 2003).

Sequences of proteins named here, by UniProt entry; tags and fusion partners are left off.
UniProt P35372, whole entry: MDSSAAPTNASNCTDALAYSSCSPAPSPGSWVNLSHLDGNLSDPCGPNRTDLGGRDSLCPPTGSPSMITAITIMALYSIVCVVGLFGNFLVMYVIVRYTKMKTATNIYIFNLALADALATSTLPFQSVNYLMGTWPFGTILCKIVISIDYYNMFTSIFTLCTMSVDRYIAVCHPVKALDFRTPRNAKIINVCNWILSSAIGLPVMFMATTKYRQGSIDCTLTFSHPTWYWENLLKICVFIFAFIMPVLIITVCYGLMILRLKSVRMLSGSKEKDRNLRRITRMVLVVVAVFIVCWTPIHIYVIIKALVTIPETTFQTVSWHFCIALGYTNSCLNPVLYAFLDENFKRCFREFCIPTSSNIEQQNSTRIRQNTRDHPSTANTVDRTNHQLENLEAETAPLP

Molecular target: μ opioid receptors (Homo sapiens, UniProt P35372)
Conditions: cited from earlier work

In the case of `CN(C)C[C@H]1CCCC[C@]1(O)c1cccc(O)c1` [mono-O-desmethyl tramadol, mono-O-desmethyltramadol], the “binding affinity to μ receptors” value is given as “higher affinity binding”.
